Assay results as given in PMC5340007 (BMC Cancer, 2017).

Test: Plasma pharmacokinetics, each drug alone and in combination
Details: selumetinib + dacarbazine arm, dosed in combination, selumetinib 50 mg (N = 7), geometric mean (% CV)

In the case of `Cn1cnc2c(F)c(Nc3ccc(Br)cc3Cl)c(C(=O)NOCCO)cc21` [Selumetinib], the “AUC(0–12)” value was 2822 (42.48) ng•h/mL.
